Experimental data published in ChEMBL document CHEMBL3593176, “Design and biological evaluation of novel 4-(2-fluorophenoxy)quinoline derivatives bearing an imidazolone moiety as c-Met kinase inhibitors” (Bioorg Med Chem, 2015).

Legend:
Homo sapiens [1] = species on record: Homo sapiens; assay: Selectivity ratio of IC50 for VEGFR-2 (unknown origin) to IC50 for c-Met (unknown origin)
Homo sapiens [2] = species on record: Homo sapiens; assay: Selectivity ratio of IC50 for c-Kit (unknown origin) to IC50 for c-Met (unknown origin)
Homo sapiens [3] = species on record: Homo sapiens; assay: Selectivity ratio of IC50 for FLT-3 (unknown origin) to IC50 for c-Met (unknown origin)
Homo sapiens [4] = species on record: Homo sapiens; assay: Selectivity ratio of IC50 for Ron (unknown origin) to IC50 for c-Met (unknown origin)
Homo sapiens [5] = species on record: Homo sapiens; assay: Selectivity ratio of IC50 for EGFR (unknown origin) to IC50 for c-Met (unknown origin)

Ratio IC50 (Homo sapiens [1]): 65 | Ratio IC50 (Homo sapiens [2]): 27 | Ratio IC50 (Homo sapiens [3]): 94 | Ratio IC50 (Homo sapiens [4]): 190 | Ratio IC50 (Homo sapiens [5]): > 10000
SMILES: COc1cc2c(Oc3ccc(NC(=O)c4[nH]c(=O)n(-c5ccccc5Cl)c4C)cc3F)ccnc2cc1OCCCN1CCN(C)CC1
